According to patent publication US20070238731A1, “Dna-Pk Inhibitors” (KUDOS PHARMACEUTICALS LIMITED, priority 2004, published 2007):
Where two headings read alike, the source gives them in different places.

The chains behind the UniProt entries cited, without tags or fusion partners.
UniProt P78527, whole entry: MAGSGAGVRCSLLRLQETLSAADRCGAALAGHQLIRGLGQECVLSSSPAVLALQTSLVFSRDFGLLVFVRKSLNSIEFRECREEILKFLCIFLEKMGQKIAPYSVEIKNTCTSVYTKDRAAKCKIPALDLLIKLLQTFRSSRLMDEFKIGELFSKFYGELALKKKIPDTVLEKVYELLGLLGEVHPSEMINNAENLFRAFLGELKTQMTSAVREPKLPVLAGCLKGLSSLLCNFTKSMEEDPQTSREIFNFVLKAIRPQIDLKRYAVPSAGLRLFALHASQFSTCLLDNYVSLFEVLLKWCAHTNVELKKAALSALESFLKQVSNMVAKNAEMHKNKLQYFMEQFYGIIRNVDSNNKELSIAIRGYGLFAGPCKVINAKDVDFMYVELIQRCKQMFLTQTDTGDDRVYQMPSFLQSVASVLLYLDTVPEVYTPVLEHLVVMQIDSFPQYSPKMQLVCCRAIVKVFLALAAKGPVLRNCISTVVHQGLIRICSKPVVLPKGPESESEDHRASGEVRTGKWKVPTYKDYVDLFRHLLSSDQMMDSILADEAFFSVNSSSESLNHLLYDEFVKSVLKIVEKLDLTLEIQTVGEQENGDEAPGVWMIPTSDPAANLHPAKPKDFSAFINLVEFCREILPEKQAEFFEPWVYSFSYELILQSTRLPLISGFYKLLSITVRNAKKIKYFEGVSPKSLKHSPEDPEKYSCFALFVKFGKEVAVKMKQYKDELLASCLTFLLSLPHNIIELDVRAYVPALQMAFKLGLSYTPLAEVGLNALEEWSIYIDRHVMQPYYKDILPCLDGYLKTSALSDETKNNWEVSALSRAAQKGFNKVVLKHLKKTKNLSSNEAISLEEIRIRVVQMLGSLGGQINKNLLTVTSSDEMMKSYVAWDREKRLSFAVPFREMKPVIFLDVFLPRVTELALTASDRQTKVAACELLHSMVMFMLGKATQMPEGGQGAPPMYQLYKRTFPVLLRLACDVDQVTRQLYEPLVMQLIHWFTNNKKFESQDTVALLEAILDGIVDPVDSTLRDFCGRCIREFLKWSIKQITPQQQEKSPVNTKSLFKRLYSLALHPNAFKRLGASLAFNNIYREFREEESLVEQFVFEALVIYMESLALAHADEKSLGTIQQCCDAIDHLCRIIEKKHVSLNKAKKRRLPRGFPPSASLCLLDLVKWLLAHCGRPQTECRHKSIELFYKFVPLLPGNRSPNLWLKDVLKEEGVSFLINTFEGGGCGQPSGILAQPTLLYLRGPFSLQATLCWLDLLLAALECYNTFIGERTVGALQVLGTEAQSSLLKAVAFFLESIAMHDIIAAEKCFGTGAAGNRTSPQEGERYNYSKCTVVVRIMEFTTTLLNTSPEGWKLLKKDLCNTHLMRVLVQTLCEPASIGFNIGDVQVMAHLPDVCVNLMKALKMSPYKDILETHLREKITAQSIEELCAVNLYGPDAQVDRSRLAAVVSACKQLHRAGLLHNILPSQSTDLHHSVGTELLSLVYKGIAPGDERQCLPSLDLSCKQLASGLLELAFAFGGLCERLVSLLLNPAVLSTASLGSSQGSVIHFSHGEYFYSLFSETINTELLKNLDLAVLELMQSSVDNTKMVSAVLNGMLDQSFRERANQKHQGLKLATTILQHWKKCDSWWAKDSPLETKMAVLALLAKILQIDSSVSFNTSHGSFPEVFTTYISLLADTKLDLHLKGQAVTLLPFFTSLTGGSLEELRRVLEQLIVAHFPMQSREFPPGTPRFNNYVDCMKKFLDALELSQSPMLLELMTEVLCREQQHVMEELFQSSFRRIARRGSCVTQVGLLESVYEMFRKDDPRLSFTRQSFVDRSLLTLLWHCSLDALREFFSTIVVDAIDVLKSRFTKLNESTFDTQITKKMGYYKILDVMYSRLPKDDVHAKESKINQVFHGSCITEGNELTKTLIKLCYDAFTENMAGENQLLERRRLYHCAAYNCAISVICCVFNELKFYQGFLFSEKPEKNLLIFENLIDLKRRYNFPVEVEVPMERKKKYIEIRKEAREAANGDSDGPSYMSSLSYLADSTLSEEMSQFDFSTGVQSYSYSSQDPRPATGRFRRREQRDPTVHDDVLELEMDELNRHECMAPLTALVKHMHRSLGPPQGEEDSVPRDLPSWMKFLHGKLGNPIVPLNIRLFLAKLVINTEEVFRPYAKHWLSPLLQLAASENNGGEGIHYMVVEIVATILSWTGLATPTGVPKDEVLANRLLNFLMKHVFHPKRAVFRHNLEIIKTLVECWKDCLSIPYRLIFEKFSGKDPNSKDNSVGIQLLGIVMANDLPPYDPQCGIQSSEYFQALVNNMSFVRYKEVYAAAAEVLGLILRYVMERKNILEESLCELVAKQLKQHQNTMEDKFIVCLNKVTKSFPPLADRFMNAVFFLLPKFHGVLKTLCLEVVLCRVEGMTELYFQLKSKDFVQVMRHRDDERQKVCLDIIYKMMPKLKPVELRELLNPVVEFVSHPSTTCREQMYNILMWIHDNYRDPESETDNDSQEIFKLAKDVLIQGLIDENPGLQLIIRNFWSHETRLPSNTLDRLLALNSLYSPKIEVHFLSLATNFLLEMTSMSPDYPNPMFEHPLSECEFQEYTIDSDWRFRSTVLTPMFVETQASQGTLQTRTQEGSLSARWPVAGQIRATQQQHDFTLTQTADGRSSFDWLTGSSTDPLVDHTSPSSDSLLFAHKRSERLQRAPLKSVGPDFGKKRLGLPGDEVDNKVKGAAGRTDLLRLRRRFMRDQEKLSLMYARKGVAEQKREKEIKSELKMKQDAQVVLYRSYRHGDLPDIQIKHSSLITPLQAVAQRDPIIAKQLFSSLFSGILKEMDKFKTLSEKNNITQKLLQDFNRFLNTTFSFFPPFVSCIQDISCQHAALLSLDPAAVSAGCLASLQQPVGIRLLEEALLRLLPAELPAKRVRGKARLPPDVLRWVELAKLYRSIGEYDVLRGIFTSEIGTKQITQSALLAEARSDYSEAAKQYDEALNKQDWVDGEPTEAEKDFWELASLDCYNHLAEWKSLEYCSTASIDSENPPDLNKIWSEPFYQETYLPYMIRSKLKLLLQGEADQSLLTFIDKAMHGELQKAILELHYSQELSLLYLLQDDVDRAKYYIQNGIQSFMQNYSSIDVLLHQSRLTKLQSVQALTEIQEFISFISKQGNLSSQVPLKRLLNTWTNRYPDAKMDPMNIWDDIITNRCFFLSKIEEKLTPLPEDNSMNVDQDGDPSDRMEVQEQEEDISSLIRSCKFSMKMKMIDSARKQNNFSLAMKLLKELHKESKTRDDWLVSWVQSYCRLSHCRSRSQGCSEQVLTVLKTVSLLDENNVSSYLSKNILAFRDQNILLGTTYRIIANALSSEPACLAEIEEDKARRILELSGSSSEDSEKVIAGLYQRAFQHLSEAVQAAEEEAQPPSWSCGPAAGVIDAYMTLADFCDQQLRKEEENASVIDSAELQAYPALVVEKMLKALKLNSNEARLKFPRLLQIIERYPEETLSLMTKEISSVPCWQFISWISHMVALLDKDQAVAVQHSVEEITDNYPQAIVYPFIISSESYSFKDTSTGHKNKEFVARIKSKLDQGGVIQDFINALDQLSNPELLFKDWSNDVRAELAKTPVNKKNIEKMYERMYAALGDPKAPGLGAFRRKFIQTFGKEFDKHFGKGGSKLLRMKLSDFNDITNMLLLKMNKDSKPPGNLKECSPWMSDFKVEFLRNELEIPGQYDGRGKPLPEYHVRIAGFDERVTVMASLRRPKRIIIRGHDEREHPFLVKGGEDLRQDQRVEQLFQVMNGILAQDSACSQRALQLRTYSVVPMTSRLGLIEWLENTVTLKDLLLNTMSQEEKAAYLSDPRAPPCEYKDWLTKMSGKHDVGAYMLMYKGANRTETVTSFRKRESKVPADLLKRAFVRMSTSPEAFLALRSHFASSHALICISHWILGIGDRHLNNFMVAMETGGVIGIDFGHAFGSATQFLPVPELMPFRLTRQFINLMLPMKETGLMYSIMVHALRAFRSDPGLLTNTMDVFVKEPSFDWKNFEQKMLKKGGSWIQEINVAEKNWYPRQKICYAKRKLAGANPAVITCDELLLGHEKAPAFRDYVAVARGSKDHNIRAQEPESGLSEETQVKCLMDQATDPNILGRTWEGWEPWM

Target: Mammalian DNA-PK (Homo sapiens, UniProt P78527)
Assay: DNA-PK inhibition (ELISA of p53 Ser15 phosphorylation of GST-p53N66)
Assay type: biochemical, Mammalian (isolated from HeLa cell nuclear extract)
[1] = ATP 50 μM, 30° C., read-out: IC50 DNA-PK inhibition

SMILES | IC50 [nM] | IC50 [1] [nM]
O=C(CN(CCO)CCO)Nc1ccc(-c2cccc3c(=O)cc(N4CCOCC4)oc23)c2sc3ccccc3c12 [Compound 5] | < 10 | –
C[C@@H]1CN(CC(=O)Nc2ccc(-c3cccc4c(=O)cc(N5CCOCC5)oc34)c3sc4ccccc4c23)C[C@H](C)O1 [Compound 18] | < 10 | –
CC(=O)N1CCN(CC(=O)Nc2ccc(-c3cccc4c(=O)cc(N5CCOCC5)oc34)c3sc4ccccc4c23)CC1 [Compound 23] | < 10 | –
COCCN1CCN(CC(=O)Nc2ccc(-c3cccc4c(=O)cc(N5CCOCC5)oc34)c3sc4ccccc4c23)CC1 [Compound 24] | < 10 | –
O=C(CN1CCN(CCOCCO)CC1)Nc1ccc(-c2cccc3c(=O)cc(N4CCOCC4)oc23)c2sc3ccccc3c12 [Compound 25] | < 10 | –
CCN1CCN(CC(=O)Nc2ccc(-c3cccc4c(=O)cc(N5CCOCC5)oc34)c3sc4ccccc4c23)CC1 [Compound 26] | < 10 | –
O=C(CN1CCN(CCO)CC1)Nc1ccc(-c2cccc3c(=O)cc(N4CCOCC4)oc23)c2sc3ccccc3c12 [Compound 32] | < 10 | –
NCCC(=O)Nc1ccc(-c2cccc3c(=O)cc(N4CCOCC4)oc23)c2sc3ccccc3c12 [Compound 51] | – | < 10
O=C(CCNCC1CCCO1)Nc1ccc(-c2cccc3c(=O)cc(N4CCOCC4)oc23)c2sc3ccccc3c12 (stereo not drawn) [Compound 53] | – | < 10
COCCNCCC(=O)Nc1ccc(-c2cccc3c(=O)cc(N4CCOCC4)oc23)c2sc3ccccc3c12 [Compound 60] | – | < 10
O=c1cc(N2CCOCC2)oc2c(-c3ccc(OCCNCCN4CCOCC4)c4c3sc3ccccc34)cccc12 [Compound 81] | – | < 10
COC(=O)C(CO)NCCOc1ccc(-c2cccc3c(=O)cc(N4CCOCC4)oc23)c2sc3ccccc3c12 (stereo not drawn) [Compound 82] | – | < 10
CC(C)N1CCN(CCOc2ccc(-c3cccc4c(=O)cc(N5CCOCC5)oc34)c3sc4ccccc4c23)CC1 [Compound 83] | < 10 | –
CC(=O)N1CCN(CCOc2ccc(-c3cccc4c(=O)cc(N5CCOCC5)oc34)c3sc4ccccc4c23)CC1 [Compound 84] | < 10 | –
O=c1cc(N2CCOCC2)oc2c(-c3ccc(OCCNCc4ccncc4)c4c3sc3ccccc34)cccc12 [Compound 85] | < 10 | –
O=c1cc(N2CCOCC2)oc2c(-c3ccc(OCCNc4cccnc4)c4c3sc3ccccc34)cccc12 [Compound 86] | < 10 | –
CN(C)CCOc1ccc(-c2cccc3c(=O)cc(N4CCOCC4)oc23)c2sc3ccccc3c12 [Compound 88] | < 10 | –
CN1CCCN(CCOc2ccc(-c3cccc4c(=O)cc(N5CCOCC5)oc34)c3sc4ccccc4c23)CC1 [Compound 90] | < 10 | –
NC(=O)CNCCOc1ccc(-c2cccc3c(=O)cc(N4CCOCC4)oc23)c2sc3ccccc3c12 [Compound 91] | – | < 10
COC(=O)[C@H](CO)NC(=O)COc1ccc(-c2cccc3c(=O)cc(N4CCOCC4)oc23)c2sc3ccccc3c12 [Compound 95] | – | < 10
O=c1cc(N2CCOCC2)oc2c(-c3cccc4c3sc3ccccc34)cccc12 [reference compound] | 10 to 12 | –
